# Yeast mating assay 2: variants of the scFv Ab-95

All variants were tested on one target, the spike HR2 peptide PDVDLGDISGINAS (SARS-CoV-2).

The variants keep the heavy chain, the linker and the frameworks of Ab-95 (scFv order VH, the linker GGGGSGGGGSGGGGS, VL).
VH: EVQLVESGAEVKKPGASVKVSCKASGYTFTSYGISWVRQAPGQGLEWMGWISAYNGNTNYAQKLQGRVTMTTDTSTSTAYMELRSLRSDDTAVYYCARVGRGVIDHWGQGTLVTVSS
VL: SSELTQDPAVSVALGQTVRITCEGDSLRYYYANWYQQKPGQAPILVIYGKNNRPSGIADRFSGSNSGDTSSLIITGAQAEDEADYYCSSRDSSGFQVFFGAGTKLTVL

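The starting antibody came from a phage panning campaign against this peptide. The library (AAYL52) carries one to three amino acid substitutions per variant, with no insertions or deletions. AlphaSeq pools MATa yeast showing the antibodies with MATalpha yeast showing the peptide. Pairs that bind mate more often; barcode pairs of the diploids are counted by sequencing. A regression on co-assayed BCL2-family reference pairs converts the normalised counts of each replicate to an apparent Kd. Each pool was mated in three replicate cultures.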

Each variant is given by its three light chain CDRs, as the data file delimits them; those of the parent are EGDSLRYYYAN, GKNNRPS, SSRDSSGFQVF. The read-out is the apparent dissociation constant on a log10 scale (nM): the lower, the stronger. Replicates are averaged; those with no signal do not enter the mean. "ND" marks a missing value. The strain was present, yet no cells mated with the target were sequenced in that replicate, which points to weak or no binding. Three control strains display no target. For library AAYL52, 28% of the pairings with them gave a signal, with a median of 3.91 and one signal in twenty below 2.90, so weak values seen in few replicates may be background. For each scFv, signals with the empty controls are counted beside the result.

For EGQSPRYYYAN, GKNNSPS, SSRDSSGFQVF, the assay gave 4.17, 3.44, ND (mean 3.81; controls 2 of 9).
For EGDSLRYCYAN, GKNNRPS, RSRDSSGFGVF, the assay gave 2.70, 4.10, 3.30 (mean 3.37; controls 3 of 9).
For EGDSLRYYYAN, GKNNWPS, SSRDSSGEWVF, the assay gave 4.51, 5.40, ND (mean 4.95; controls 8 of 9).
For EGDSLRYYYAN, GKNNHPW, SSRDTSGFQVF, the assay gave 3.23, 3.24, ND (mean 3.23; controls 2 of 9).
For EGDSIRYYYAN, GKDNRPS, SSRDSSGFQVF, the assay gave 2.54, 2.68, 2.32 (mean 2.51; controls 3 of 9).
For EGDSLRYHYFN, GKNNRPS, SSRDSNGFQVF, the assay gave 3.46, 2.20, ND (mean 2.83; controls 3 of 9).
For EGDSRRYYYVN, GKNNRPS, SSRDSSGFQVF, the assay gave 3.65, 3.71, 3.25 (mean 3.53; controls 7 of 9).
For EGDSLRYYLAN, GKNNRPS, SSRDDYGFQVF, the assay gave 2.31, 2.29, 2.44 (mean 2.34; controls 1 of 9).
For EGDSLRYYYAN, GQNNRPA, SSPDSSGFQVF, the assay gave ND, ND, ND (controls 4 of 9).
For EGDQLRYCYAN, GKNNRPS, SSRESSGFQVF, the assay gave ND, 3.34, ND (controls 1 of 9).
For EGDSRRYYYAN, GKNNRPY, TSRDSSGFQVF, the assay gave 3.54, ND, 3.46 (mean 3.50; controls 3 of 9).
For EGDSTRYYYAN, KKNNRPR, SSRDSSGFQVF, the assay gave ND, 4.33, ND (controls 4 of 9).
For EGDSCRYYYAN, GKNNRPS, SSRDSDGFQNF, the assay gave ND, ND, 2.80 (controls 5 of 9).
For EKDSVRYYYAN, GKNNRPS, SSRDSSGFQVG, the assay gave ND, 3.55, 4.37 (mean 3.96; controls 5 of 9).
For YGDSLRYYRAN, GKNNNPS, SSRDSSGFQVF, the assay gave 2.95, 2.71, 2.51 (mean 2.72; controls 2 of 9).
For EGDSLRYYMAN, GKYNRPS, SSRDSSGFQLF, the assay gave 5.16, 3.94, ND (mean 4.55; controls 1 of 9).
For EGDSMRYYMAN, GKNNRPS, SSRMSSGFQVF, the assay gave 3.39, 4.18, ND (mean 3.78; controls 2 of 9).
For EGDWLREYYAN, GKNNRPS, SSRDSSGQQVF, the assay gave 2.63, 3.12, 4.35 (mean 3.37; controls 4 of 9).
For EGDSLRYYYAN, GKPNRPS, SSRDQSGFFVF, the assay gave 3.06, 3.63, ND (mean 3.35; controls 4 of 9).
For EGDSLRYYYAP, GKNNDPS, SSRDSSGFVVF, the assay gave ND, ND, ND (controls 0 of 9).
For EGDSLRYYYAN, GKNNRPS, SSRDPSGDQVF, the assay gave 2.67, 1.87, 2.38 (mean 2.31; controls 4 of 9).
For EGDSLRYYYAN, GKNKRPS, SSRDPSGFGVF, the assay gave 3.82, ND, ND (controls 3 of 9).
For EGDSKRYYYAE, GKNNRPS, HSRDSSGFQVF, the assay gave 3.62, ND, ND (controls 2 of 9).
For GGDSLRYYYAC, GKNNRPS, SSRDSSGKQVF, the assay gave 4.42, 3.73, ND (mean 4.07; controls 4 of 9).
For EGDSLRYYYAN, GKNNRPS, SSIDSSCFQVY, the assay gave ND, ND, ND (controls 1 of 9).
For EGDSLRYIYAN, GKNNRPS, SSWDSSGFQVF, the assay gave 3.70, 2.80, 2.78 (mean 3.09; controls 3 of 9).
For EGDSLRYYYAN, GKNNRPN, SSMDSRGFQVF, the assay gave 4.18, 4.55, 4.03 (mean 4.25; controls 3 of 9).
For EGDSLRYYTAN, GNDNRPS, SSRDSSGFQVF, the assay gave 2.34, 1.99, 1.66 (mean 2.00; controls 2 of 9).
For EGDSLWYYYAN, GYNNRPS, SSRDSSGFQSF, the assay gave 4.44, 4.79, 3.81 (mean 4.35; controls 2 of 9).
For HGDSYRYYYAN, GKNNRPS, SSRDSHGFQVF, the assay gave ND, ND, ND (controls 4 of 9).
For EGDSLSYYYAN, GKNNRPS, HSRDSSGFQVF, the assay gave 1.56, 2.01, 1.41 (mean 1.66; controls 1 of 9).
For EGDCLSYYYAN, GKNNRPS, SSRDSSGKQVF, the assay gave ND, ND, 3.61 (controls 4 of 9).
For EGDSLRYYYAN, GGNNRPS, SSRDSSGFQVF, the assay gave 2.85, 2.21, 2.86 (mean 2.64; controls 3 of 9).
For EGDSLAYYYAN, GKNNRPM, SSRDSSGRQVF, the assay gave 3.84, 2.80, 3.25 (mean 3.30; controls 0 of 9).
For EGDCLRYYYAN, GKNWRPS, SSHDSSGFQVF, the assay gave 3.35, ND, ND (controls 7 of 9).
For EGDSLRYYYAQ, GKNNLPS, SSNDSSGFQVF, the assay gave ND, ND, ND (controls 2 of 9).
For GGDSLRYYYAN, AKNNRPS, SSRASSGFQVF, the assay gave 3.85, 2.75, ND (mean 3.30; controls 3 of 9).
For EGDCLRYYYAN, GKNNRRS, SSRDSSSFQVF, the assay gave ND, ND, ND (controls 1 of 9).
For EGDSLRYYYAN, GQNNRQS, SSLDSSGFQVF, the assay gave 4.25, 3.77, 4.04 (mean 4.02; controls 4 of 9).
For EGDSLRYYYAN, GRNIRPS, SSRDSSGFQVE, the assay gave 2.24, 2.64, 1.98 (mean 2.28; controls 2 of 9).
For GGFSLRYYYAN, GKNIRPS, SSRDSSGFQVF, the assay gave ND, ND, 3.48 (controls 1 of 9).
For EGDSLRYYYAN, GKQNRQS, SSRDISGFQVF, the assay gave 3.63, 2.81, 3.06 (mean 3.17; controls 5 of 9).
For EGDSLRYLYAN, GKNNRPS, SDRTSSGFQVF, the assay gave 2.90, 2.11, 2.30 (mean 2.44; controls 3 of 9).
For EGDSLRYYYAP, GKNNRPS, SSRDSSGQQVF, the assay gave 4.16, ND, 2.85 (mean 3.51; controls 6 of 9).
For EGDSLRDYYAN, GKNNAPI, SSRDSSGFQVF, the assay gave 3.16, 2.96, ND (mean 3.06; controls 4 of 9).

For reference, the parent read 2.31 as the reference entry and 2.25 as a member of this library.

Reference: Engelhart et al. 2022, doi:10.1038/s41597-022-01779-4. File: FLAb, binding data.